Laboratory results as given in ChEMBL document CHEMBL1129637, “Conformationally defined 6-s-trans-retinoic acid analogs. 3. Structure-activity relationships for nuclear receptor binding, transcriptional activity, and cancer chemopreventive activity” (J Med Chem, 1996).

Protein sequences, listed by entry. Tags and fused reporters are not part of them.
UniProt P11416, whole entry: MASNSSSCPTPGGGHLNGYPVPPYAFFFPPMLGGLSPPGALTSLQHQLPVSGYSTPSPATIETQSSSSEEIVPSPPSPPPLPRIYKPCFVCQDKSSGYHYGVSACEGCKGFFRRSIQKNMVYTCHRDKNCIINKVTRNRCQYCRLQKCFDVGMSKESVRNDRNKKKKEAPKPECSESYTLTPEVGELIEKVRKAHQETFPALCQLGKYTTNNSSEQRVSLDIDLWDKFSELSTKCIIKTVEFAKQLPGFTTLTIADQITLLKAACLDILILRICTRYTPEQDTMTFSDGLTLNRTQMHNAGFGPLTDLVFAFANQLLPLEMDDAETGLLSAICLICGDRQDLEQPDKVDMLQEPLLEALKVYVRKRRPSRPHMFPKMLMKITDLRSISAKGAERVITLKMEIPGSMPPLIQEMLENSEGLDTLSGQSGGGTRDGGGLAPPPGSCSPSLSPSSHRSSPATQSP
UniProt P62965, whole entry: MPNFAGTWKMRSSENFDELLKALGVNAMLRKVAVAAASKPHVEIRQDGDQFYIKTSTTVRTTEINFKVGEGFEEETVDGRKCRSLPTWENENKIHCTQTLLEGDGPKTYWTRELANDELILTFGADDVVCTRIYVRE

Assays:
[1] = molecular target: Retinoic acid receptor alpha (Mus musculus, UniProt P11416); test: Inhibition of [3H]ATRA binding to mouse Retinoic acid receptor RAR alpha
Procedure, shortened: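 Radioligand competition assay for RARα, measuring inhibition of [3H]-(all-E)-RA binding by unlabeled retinoid over a dose series to derive IC50.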

[2] = molecular target: Cellular retinoic acid-binding protein 1 (Mus musculus, UniProt P62965); test: Inhibition of [3H]ATRA binding to murine Cytoplasmic retinoic acid binding protein (CRABP) type 1

IC50 [1] | Kd [2] | Compound
0.031 µM | > 0.2 µM | CC1=C(/C=C/C(C)=C\C=C\C(C)=C\C(=O)O)C(C)(C)CCC1 [ALITRETINOIN]
0.006 µM |  | CC1=C(/C=C/C(C)=C/C=C/C(C)=C/C(=O)O)C(C)(C)CCC1 [TRETINOIN]
